Data as given in article PMC5618341, “Controlled inhibition of methyltransferases using photoswitchable peptidomimetics: towards an epigenetic regulation of leukemia” (Chemical Science, 2017).
Like-named read-outs stand apart in the source and are kept apart here.

Target: T1, WDR5Δ23 (Homo sapiens, UniProt P61964)
T1 construct: His6-SUMO (N, cleaved yes); made in house; host or cells: E. coli DH5α (so in the source)
Test: Fluorescence polarization (FP)-based competitive binding assay

CC(C)C[C@H](NC(=O)[C@H](Cc1cnc[nH]1)NC(=O)[C@@H](NC(=O)[C@H](CCC(=O)O)NC(=O)[C@H](C)NC(=O)[C@H](CCCN=C(N)N)NC(=O)[C@H](C)NC(=O)[C@@H](N)CO)C(C)C)C(=O)N[C@@H](CCCN=C(N)N)C(=O)N[C@@H](CCCCN)C(=O)N[C@@H](CO)C(N)=O [peptide 3, reference compound]
IC50 (non-irradiated peptide (trans isomer), 72 nM WDR5Δ23, 20 nM tracer 22, read-out: IC50, non-irradiated (trans)): 1340 ± 62 nM | IC50 (peptide irradiated at 430 nm, 20 nM tracer, read-out: IC50 (irr. at 430 nm)): 1430 ± 430 nM | Ki (peptide irradiated at 430 nm, 20 nM tracer, read-out: Ki (irr. at 430 nm)): 23.8 ± 6.16 nM
